Data as given in patent US6593340B1, “Pharmaceutical compositions containing N-propargylphentermine and related analogs to treat neurodegeneration and/or depression” (CV Technologies, Inc., priority 2000, dated 2003).

Test system: rat brain and liver monoamine oxidase-A
Assay: Monoamine oxidase-A-inhibiting activity ex vivo
Format: in vivo
Settings: 7 days following injection, i.p., 10 mg/kg combined with DSP4 50 mg/kg

(−)-deprenyl [reference compound]
% Inhibition Monoamine Oxidase-A (brain): −14.2 ± 9.3% | % Inhibition Monoamine Oxidase-A (liver): 9.1 ± 6.0%
